Target: HDAC2 (Homo sapiens, UniProt Q92769)
Experiment: Fluorogenic enzymatic assay HDAC2
Details: ratio of IC50 values

Sequences of proteins named here, by UniProt entry; tags and fusion partners are left off.
UniProt Q92769, whole entry: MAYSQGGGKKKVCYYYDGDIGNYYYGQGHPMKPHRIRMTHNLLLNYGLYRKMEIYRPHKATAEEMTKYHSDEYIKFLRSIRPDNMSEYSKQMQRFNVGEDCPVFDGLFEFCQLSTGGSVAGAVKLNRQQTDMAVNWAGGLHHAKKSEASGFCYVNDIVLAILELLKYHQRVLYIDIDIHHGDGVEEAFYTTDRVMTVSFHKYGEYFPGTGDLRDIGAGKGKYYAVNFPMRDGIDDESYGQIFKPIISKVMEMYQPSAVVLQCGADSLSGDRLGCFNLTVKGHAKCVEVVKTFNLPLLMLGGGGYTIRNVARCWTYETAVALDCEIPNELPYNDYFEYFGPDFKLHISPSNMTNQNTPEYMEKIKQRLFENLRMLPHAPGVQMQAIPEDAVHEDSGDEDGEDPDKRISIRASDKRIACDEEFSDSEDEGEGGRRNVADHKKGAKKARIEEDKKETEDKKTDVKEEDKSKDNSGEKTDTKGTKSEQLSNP

`CCn1c(SCCCCCC(=O)O)nnc1-c1ccncc1` [Compound 5b, 6-((4-ethyl-5-(pyridin-4-yl)-4H-1,2,4-triazol-3-yl)thio)hexanoic acid] was tested, and the “HDAC6/ HDAC2” value was >11.37 and the “HDAC8/ HDAC2” value was >11.37.

With `C=CCn1c(SCCCCCC(=O)O)nnc1-c1ccncc1` [Compound 5c, 6-((4-allyl-5-(pyridin-4-yl)-4H-1,2,4-triazol-3-yl)thio)hexanoic acid] the “HDAC6/ HDAC2” value was >29.64 and the “HDAC8/ HDAC2” value was >29.64.

In the case of `CCn1c(SCCCCCC(=O)NO)nnc1-c1ccncc1` [Compound 6b, 6-((4-ethyl-5-(pyridin-4-yl)-4H-1,2,4-triazol-3-yl)thio)-N-hydroxyhexanamide], the “HDAC6/ HDAC2” value was >9.32.

`C=CCn1c(SCCCCCC(=O)NO)nnc1-c1ccncc1` [Compound 6c, 6-((4-allyl-5-(pyridin-4-yl)-4H-1,2,4-triazol-3-yl)thio)-N-hydroxyhexanamide] was tested, and the “HDAC1/ HDAC2” value was >25.60.

In the case of `O=C(CCCCCSc1nnc(-c2ccncc2)n1-c1ccccc1)NO` [Compound 6d, N-hydroxy-6-((4-phenyl-5-(pyridin-4-yl)-4H-1,2,4-triazol-3-yl)thio)hexanamide], the “HDAC1/ HDAC2” value was >9.27, the “HDAC3/ HDAC2” value was >9.27 and the “HDAC8/ HDAC2” value was >9.27.

For `CCn1c(SCCCCCC(=O)Nc2ccccc2N)nnc1-c1ccncc1` [Compound 7b, N-(2-aminophenyl)-6-((4-ethyl-5-(pyridin-4-yl)-4H-1,2,4-triazol-3-yl)thio)hexanamide], the “HDAC1/ HDAC2” value was >11.06, the “HDAC3/ HDAC2” value was >11.06 and the “HDAC6/ HDAC2” value was >11.06.

In the case of `Nc1ccccc1NC(=O)CCCCCSc1nnc(-c2ccncc2)n1-c1ccccc1` [Compound 7d, N-(2-aminophenyl)-6-((4-phenyl-5-(pyridin-4-yl)-4H-1,2,4-triazol-3-yl)thio)hexanamide], the “HDAC3/ HDAC2” value was >7.75 and the “HDAC8/ HDAC2” value was >7.75.

For `CCn1c(SCc2ccc(C(=O)NO)cc2)nnc1-c1ccncc1` [Compound 10b, 4-(((4-ethyl-5-(pyridin-4-yl)-4H-1,2,4-triazol-3-yl)thio)methyl)-N-hydroxybenzamide], the “HDAC1/ HDAC2” value was >9.87, the “HDAC6/ HDAC2” value was >9.87 and the “HDAC8/ HDAC2” value was >9.87.

For `CCn1c(SCc2ccc(C(=O)Nc3ccccc3N)cc2)nnc1-c1ccncc1` [Compound 11b, N-(2-aminophenyl)-4-(((4-ethyl-5-(pyridin-4-yl)-4H-1,2,4-triazol-3-yl)thio)methyl)benzamide], the “HDAC1/ HDAC2” value was >7.49, the “HDAC6/ HDAC2” value was >7.49 and the “HDAC8/ HDAC2” value was >7.49.

`C=CCn1c(SCc2ccc(C(=O)Nc3ccccc3N)cc2)nnc1-c1ccncc1` [Compound 11c, 4-(((4-allyl-5-(pyridin-4-yl)-4H-1,2,4-triazol-3-yl)thio)methyl)-N-(2-aminophenyl)benzamide] was tested, and the “HDAC1/ HDAC2” value was 9.25.

For `Nc1ccccc1NC(=O)c1ccc(CSc2nnc(-c3ccncc3)n2-c2ccccc2)cc1` [Compound 11d, N-(2-aminophenyl)-4-(((4-phenyl-5-(pyridin-4-yl)-4H-1,2,4-triazol-3-yl)thio)methyl)benzamide], the “HDAC1/ HDAC2” value was 2.64.

Reference: PMC8818328 (European journal of medicinal chemistry, 2021)
